Reference: ChEMBL document CHEMBL5365425, “Discovery of novel methionine adenosyltransferase 2A (MAT2A) allosteric inhibitors by structure-based virtual screening” (Bioorg Med Chem Lett, 2023)

Protein sequences, listed by entry. Tags and fused reporters are not part of them.
UniProt P31153, whole entry, looked up: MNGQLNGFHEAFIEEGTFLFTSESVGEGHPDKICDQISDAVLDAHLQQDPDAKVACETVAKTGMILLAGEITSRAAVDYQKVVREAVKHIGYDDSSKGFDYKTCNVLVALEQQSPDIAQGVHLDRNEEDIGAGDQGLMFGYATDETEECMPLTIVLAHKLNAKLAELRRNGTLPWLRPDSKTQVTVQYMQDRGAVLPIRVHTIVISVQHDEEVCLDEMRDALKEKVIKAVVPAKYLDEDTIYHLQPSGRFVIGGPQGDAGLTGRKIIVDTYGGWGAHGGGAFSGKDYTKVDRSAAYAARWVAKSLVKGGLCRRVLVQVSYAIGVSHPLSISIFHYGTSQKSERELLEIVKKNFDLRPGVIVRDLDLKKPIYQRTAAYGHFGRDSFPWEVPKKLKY

target: S-adenosylmethionine synthase isoform type-2 (Homo sapiens, UniProt P31153)

deltaT	SMILES
14 °C	CCn1ncc2c(C(=O)Nc3ccc4nn(C)cc4c3)cc(C3CC3)nc21
7.6 °C	CCn1ncc2c(C(=O)Nc3ccc4ncn(C)c4c3)cc(C3CC3)nc21
12.6 °C	CCn1ncc2c(C(=O)Nc3ccc4nn(C)c(C)c4c3)cc(C3CC3)nc21
18 °C	COc1ccc2oc3cc(C)[n+]([O-])c(-c4ccc(C)cc4)c3c2c1
6.1 °C	CCn1ncc2c(C(=O)Nc3ccc4c(c3)ncn4C)cc(C3CC3)nc21
12.3 °C	COc1ccc(-c2c3c(cc(C)[n+]2[O-])oc2ccc(OC)cc23)cc1
10 °C	CCn1ncc2c(C(=O)Nc3ccc(OC)cc3)cc(C3CC3)nc21
